# Antibody variant affinities, Ab-14 heavy chain, assay B

Binding partner: SARS-CoV-2 spike HR2 peptide, sequence PDVDLGDISGINAS.

Ab-14 is the parent antibody, in scFv form: VH, then a (GGGGS)3 linker, then VL. The light chain is unchanged in all variants.
VH: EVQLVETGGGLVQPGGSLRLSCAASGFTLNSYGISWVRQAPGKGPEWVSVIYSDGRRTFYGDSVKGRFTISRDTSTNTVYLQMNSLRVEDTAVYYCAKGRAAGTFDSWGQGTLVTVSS
VL: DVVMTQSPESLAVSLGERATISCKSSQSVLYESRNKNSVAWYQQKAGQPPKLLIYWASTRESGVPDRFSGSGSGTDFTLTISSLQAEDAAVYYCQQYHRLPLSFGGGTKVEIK

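Phage display of a naive human antibody library on the peptide gave the parent. These sequences belong to a second round, designed from the earlier measurements on random variants of the parent. Group labels follow the data file (Ctrl: baseline library sampled from a position-specific scoring matrix, with some repeated check sequences; Rand: our label for a block that the file lists under HC and that is probably the random mutants of the ten best first-round binders; En: ensemble of fine-tuned language models; HC: hill climbing; Gen: genetic algorithm; Gibbs: Gibbs sampling; a sequence that several methods proposed may carry one label only). In AlphaSeq, yeast of one mating type display the scFv and yeast of the other type display the target. Pairs that bind mate more often; barcode pairs of the diploids are counted by sequencing. Scores were corrected for input abundance and mapped to Kd with protein pairs of known affinity run in the same pool. Each pool was mated in six replicate cultures.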

The parent's heavy chain CDRs are GFTLNSYGIS, VIYSDGRRTFYGDSVK, GRAAGTFDS; each variant's own CDRs replace them letter for letter. This list holds designs with more than six substitutions. Numbers give log10(Kd / nM), so 0 is 1 nM and 3 is 1 µM. Smaller is tighter. An entry "nd" has no value in the source: the pair was not observed among the diploids in that replicate. This suggests poor binding but is not conclusive. In the paper, a design with two or fewer of six values counts as a poor binder. A sequence measured in both rounds can read differently, since the two assays cover different ranges. As a blank, each scFv also met three strains without target: over all heavy chain designs, 1% of these pairings were detected, typically at 2.08 and seldom below 0.84. For each scFv, signals with the empty controls are counted beside the result.

Variant GFDLDEYGIS | VIYADGTRKMYAPTFK | GNHGGTFLM [En_Gibbs] showed nd, nd, nd, nd, nd, nd (controls 0 of 18). Variant GFDLNEYGIS | VIYADGMRTFYADSVK | GTNGGTFDV [En_HC] gave 0.11, 0.02, -0.24, -0.62, -0.44, -0.38 (controls 0 of 18). Variant GFSIDEYGIS | VIYADGMRTAYVESVK | GTIDENFNT [En_Gibbs] gave nd, nd, nd, 3.49, 3.69, nd (controls 0 of 18). With GVNLDEYGIS | VIYADGQRTAYDDPVK | GGQGGTVMV [En_Gibbs] the result was nd, nd, nd, nd, nd, nd (controls 0 of 18). With GFDLEDYGIS | VIYADGRRTQYADSVK | GELAGTFDL [En_HC] the result was 0.89, 0.38, 0.81, 1.09, 1.13, 1.01 (controls 0 of 18). Variant GRNLDEYGIS | VIYADGLRTSYRDNVK | GQTSGHLDM [En_Gibbs] showed 1.80, nd, nd, nd, nd, nd (controls 1 of 18). Variant HFTLNSYGIS | VIYSDGMRKFYGDNVV | GRMAGGFDK [Ctrl] gave nd, nd, nd, nd, nd, nd (controls 0 of 18). Variant GFDLNEYGIS | VIYADGVRTAYSDSVK | GNEAGTFDI [En_Gen] gave 0.16, -0.18, 0.09, -0.39, -0.20, -0.15 (controls 0 of 18).

With GFQLDEYGIS | VIYADGERTHYSNDVK | GTEGGTFQQ [En_Gibbs] the result was 0.77, 0.73, 1.65, 0.80, 0.95, 1.08 (controls 0 of 18). Variant GFDLNEYGIS | VIYADGVRTAYADSVK | GEVAGTFDQ [En_Gen] gave 0.05, -0.53, -0.12, -0.63, -0.12, -0.81 (controls 0 of 18). With GFDLNEYGIS | VIYADGQRTFYADDVK | GEVAGTFDL [En_HC] the result was -0.01, -0.14, 0.50, 0.35, 0.27, 0.61 (controls 1 of 18). Variant GFDLNEYGIS | VIYADGLRTAYADSVK | GETAGTFDV [En_Gen] showed -0.37, -0.16, -0.53, -0.50, -0.65, -0.34 (controls 0 of 18). Variant GDGLSEYGIS | VIYADGMRTSYDDSVK | GALAGTFDE [En_Gibbs] showed nd, nd, nd, nd, nd, nd (controls 0 of 18). With GFDLNEYGIS | VIYADGRRTAYDDSVK | GQVAGTFDD [En_HC] the result was -0.58, -0.61, -0.55, -0.65, -0.61, -0.63 (controls 0 of 18). With GFDLDEYGIS | VIYADGHRKSYAADVK | GSVEGVDMV [En_Gibbs] the result was nd, nd, nd, nd, nd, nd (controls 0 of 18). Variant GFDLEEYGIS | VIYADGHRSKYANSVK | GGQADFALL [En_Gibbs] gave nd, 2.83, nd, nd, 2.63, nd (controls 2 of 18).

For GFDLDEYGIS | VIYADGSRTAYADSVK | GGNAGTFDV [En_Gen], the assay gave 1.50, 1.24, 1.32, 2.41, 1.06, 1.99 (controls 0 of 18). With GFDLNEYGIS | VIYADGKRTAYVDSVK | GNQAGTFDL [En_Gen] the result was -0.23, 0.00, -0.34, -0.40, -0.33, -0.21 (controls 0 of 18). Variant GFDLNEYGIS | VIYADGMRKAYADDVK | GENAGTFDQ [En_Gen] gave 1.29, 0.88, 0.76, 0.85, 1.88, 0.09 (controls 0 of 18). With GQDLNEYGIS | VIYADGLRTAYTENVK | GNQSQFDSG [En_Gibbs] the result was nd, nd, nd, nd, 3.04, nd (controls 0 of 18). For GFDLNEYGIS | VIYADGRRTFYSDSVK | GTVAGTFDM [En_HC], the assay gave -0.16, -0.50, -0.46, -0.50, -0.28, -0.23 (controls 0 of 18). For GFDLNEYGIS | VIYADGRRTAYADSVK | GNVAGTFFS [En_HC], the assay gave 0.93, 0.86, 0.61, 0.80, 1.49, 1.28 (controls 0 of 18). For GFDLNEYGIS | VIYADGRRSFYADSVK | GTLAGTFDV [En_HC], the assay gave -0.51, -0.68, -0.98, -0.97, -0.76, -0.80 (controls 0 of 18). With GFDLNEYGIS | VIYADGRRTFYLDSVK | GNLAGTFDQ [En_HC] the result was -0.78, -0.87, -1.10, -1.27, -0.81, -0.96 (controls 0 of 18).

Variant GFDLEDYGIS | VIYADGKRTAYADSVK | GQVAGTFDV [En_Gen] gave -0.58, -0.65, -0.24, -0.27, -0.67, -0.34 (controls 0 of 18). With GFGLDEYGIS | VIYADGKRYAYKNSVK | GGVGVNGLH [En_Gibbs] the result was 1.03, 1.44, 1.76, -0.13, -0.26, -0.26 (controls 0 of 18). Variant GFDLNEYGIS | VIYADGRRTFYADSVK | GHVAGTFVL [En_HC] showed -0.63, -0.87, -0.31, -0.78, -0.77, -0.69 (controls 0 of 18). Variant GFTLDEYGIS | VIYADGQRTFYTDSVK | GGNAGTFDV [En_HC] gave -0.26, -0.10, -0.09, -0.27, -0.66, -0.77 (controls 0 of 18). Variant FQLLDDYGIS | VIYADGKRVAYVDDVK | GNVAGTFDM [En_Gibbs] gave 0.56, 0.48, 0.10, 0.06, 0.42, 0.62 (controls 0 of 18). For GFDLDEYGIS | VIYADGMRTAYADSVK | GNEAGTFDQ [En_Gen], the assay gave -0.20, -0.48, -1.31, -0.76, -0.54, -0.46 (controls 1 of 18). For GFDLNEYGIS | VIYADGQRTAYADSVK | GNEAGTFDI [En_Gen], the assay gave nd, nd, nd, nd, nd, nd (controls 0 of 18). With GFDLDEYGIS | VIYADGRRTAYADSVK | GQTAGTFDV [En_Gen] the result was -0.44, -0.31, -0.12, -0.60, 0.03, -0.20 (controls 0 of 18).

With GPSLDEYGIS | VIYADGVRQQYQDDVK | GQIGGFVNY [En_Gibbs] the result was nd, nd, nd, nd, nd, nd (controls 0 of 18). For GFNLNEYGIS | VIYADGQRTKYIDNVK | GTVRVLAMG [En_Gibbs], the assay gave nd, nd, nd, nd, nd, nd (controls 0 of 18). Variant GFDLNEYGIS | VIYADGSRTAYADNVK | GNVAGTFDL [En_Gen] gave -0.03, 0.77, -0.28, -0.10, -0.37, 0.63 (controls 0 of 18). Variant GFDLNEYGIS | VIYADGMRTFYADSVK | GSEAGTFDM [En_HC] showed -0.67, -0.29, -0.04, -0.33, 0.13, 1.10 (controls 0 of 18). Variant GDNINEYGIS | VIYADGLRTQYAENVK | GDLAGTLDS [En_Gibbs] gave nd, 1.52, nd, nd, nd, 0.76 (controls 0 of 18). For GFDLNEYGIS | VIYADGMRTVYADSVK | GQNAGTFDT [En_Gen], the assay gave -0.51, -0.57, -0.42, -0.53, -0.59, -0.41 (controls 0 of 18). With GFDLNEYGIS | VIYADGVRTAYADSVK | GENAGTFDT [En_Gen] the result was -0.52, -0.31, -0.52, -0.34, -0.67, -0.21 (controls 0 of 18). With GFDLNEYGIS | VIYADGMRQAYAQNVK | GVHVCWMVI [En_Gibbs] the result was nd, nd, nd, nd, nd, nd (controls 0 of 18).

For GMDLNEYGIS | VIYADGVRTKYANSVK | NGLVVNGKL [En_Gibbs], the assay gave nd, nd, nd, nd, nd, nd (controls 0 of 18). For GFQLNEYGIS | VIYADGIRSEYADKVK | GGINSSFGV [En_Gibbs], the assay gave nd, nd, nd, nd, nd, nd (controls 0 of 18). For GITLDSYGWS | VIYSCGRRTFYGDSVK | GRLAGTALS [Rand], the assay gave nd, nd, nd, nd, nd, nd (controls 0 of 18). For GFDLEEYGIS | VIYADGMRQMYAQNFK | GYNGSDMTV [En_Gibbs], the assay gave nd, nd, nd, nd, nd, nd (controls 0 of 18). Variant GFDLNEYGIS | VIYADGRRTFYSDSVK | GELAGTFDV [En_HC] gave -0.67, -0.59, -0.69, -0.69, -0.53, -0.40 (controls 0 of 18).

The 5 strongest on average among those seen in every replicate, once more:

With GFDLNEYGIS | VIYADGRRTFYLDSVK | GNLAGTFDQ [En_HC] the result was -0.78, -0.87, -1.10, -1.27, -0.81, -0.96 (controls 0 of 18).
With GFDLNEYGIS | VIYADGRRSFYADSVK | GTLAGTFDV [En_HC] the result was -0.51, -0.68, -0.98, -0.97, -0.76, -0.80 (controls 0 of 18).
With GFDLNEYGIS | VIYADGRRTFYADSVK | GHVAGTFVL [En_HC] the result was -0.63, -0.87, -0.31, -0.78, -0.77, -0.69 (controls 0 of 18).
With GFDLDEYGIS | VIYADGMRTAYADSVK | GNEAGTFDQ [En_Gen] the result was -0.20, -0.48, -1.31, -0.76, -0.54, -0.46 (controls 1 of 18).
With GFDLNEYGIS | VIYADGRRTAYDDSVK | GQVAGTFDD [En_HC] the result was -0.58, -0.61, -0.55, -0.65, -0.61, -0.63 (controls 0 of 18).

Values reported by Li et al. 2023, doi:10.1038/s41467-023-39022-2 (FLAb copy).